# Measured affinities in a library of Ab-95 light chain variants

From the AlphaSeq antibody data of Engelhart et al. 2022 (doi:10.1038/s41597-022-01779-4), copy in the FLAb collection.

Target peptide (SARS-CoV-2 spike, HR2 region): PDVDLGDISGINAS

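Library AAYL52 holds single substitutions and randomly drawn double and triple substitutions in the CDRs. In AlphaSeq, yeast of one mating type display the scFv and yeast of the other type display the target. Pairs that bind mate more often; barcode pairs of the diploids are counted by sequencing. Each replicate has its own calibration line, from reference interactions of the BCL2 family. Mating was done three times.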

Parent scFv Ab-95: VH joined to VL by the linker GGGGSGGGGSGGGGS. Changes lie in the light chain CDRs alone.
VH: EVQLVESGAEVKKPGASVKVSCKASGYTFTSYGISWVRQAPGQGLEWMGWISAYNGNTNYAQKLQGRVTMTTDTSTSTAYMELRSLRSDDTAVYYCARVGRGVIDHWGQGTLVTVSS
VL: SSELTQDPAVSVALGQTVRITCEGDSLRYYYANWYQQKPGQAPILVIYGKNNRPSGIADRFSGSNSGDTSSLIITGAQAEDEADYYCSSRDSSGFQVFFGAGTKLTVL

Positions count from residue 1 of the parent VL; D25I puts I in place of D.
Values are log10 of the apparent Kd in nM; lower means stronger binding.
A mean of the replicates is given; it leaves out those without a signal.
Where no diploid with the target was found in any replicate, the entry reads "not detected": below detection, most likely a poor binder, though not proof of it.
For reference, the parent read 2.31 as the reference entry and 2.25 as a member of this library.
Empty control strains, which show no peptide, gave a signal in 28% of pairings with library AAYL52; the median was 3.91 and 95% of these signals were weaker than 2.90. No background was subtracted.

| changes | mean log10 Kd (nM) | seen in |
|---|---|---|
| D25I/K50D/S88P | 1.94 | 3 of 3 |
| E23L/R28Q/Y31H | 2.23 | 3 of 3 |
| P54V/R90C/F95C | 3.13 | 3 of 3 |
| K50Y/D91Y/Q96D | 3.58 | 1 of 3 |
| N51K/R53H/S89A | 4.06 | 2 of 3 |
| E23F/D91G/G94D | 3.61 | 2 of 3 |
| S89V/R90F/S92A | 2.74 | 3 of 3 |
| Y29M/D91H/V97E | 2.76 | 3 of 3 |
| S89D/D91N/G94Q | 2.49 | 3 of 3 |
| S93E/F95L/F98E | not detected | 0 of 3 |
| Y30G/N52I/S55R | 1.16 | 3 of 3 |
| G24M/N51Q/Q96N | 3.26 | 1 of 3 |
| S55F/G94Y/F98D | 3.93 | 3 of 3 |
| E23H/P54S/S88G | 2.86 | 3 of 3 |
| E23N/N52V | 2.24 | 3 of 3 |
| D25L/K50L/S92T | 3.03 | 3 of 3 |
| N33H/G94A/F98G | 4.30 | 1 of 3 |
| R53Y/R90E/V97S | 3.79 | 3 of 3 |
| N51K/S55Q/S92W | 3.28 | 1 of 3 |
| S26N/A32W/S89N | 4.92 | 1 of 3 |
| E23H/R28K/P54M | 1.52 | 3 of 3 |
| Y31E/G49H/F98W | 2.36 | 3 of 3 |
| Y30P/K50A/P54I | 3.99 | 3 of 3 |
| G24H/R28T/N52I | 3.27 | 3 of 3 |
| E23N/S89Y/F98D | not detected | 0 of 3 |
| E23F/Y29H/Y30C | 3.26 | 3 of 3 |
| S93I/V97E/F98K | 3.20 | 1 of 3 |
| R28K/R90W/S92R | 2.54 | 3 of 3 |
| R28I/R90N/V97R | 3.34 | 2 of 3 |
| Y29S/Y30V/Y31G | 1.00 | 3 of 3 |
| N33F/G49T/S92W | 4.32 | 2 of 3 |
| Y29P/K50W/S89C | 2.85 | 3 of 3 |
| G24E/L27T/N52H | 3.63 | 1 of 3 |
| E23W/D25M | 2.73 | 3 of 3 |
| S26C/S55T/D91G | 3.00 | 3 of 3 |
| R28K/S55R/R90I | not detected | 0 of 3 |
| S89K/F95E/V97P | 2.45 | 3 of 3 |
| D25P/L27N/A32N | 2.95 | 3 of 3 |

Further variants, results first:

| mean log10 Kd (nM) | seen in | changes |
|---|---|---|
| 2.92 | 2 of 3 | S26D/Y29K/S89K |
| 2.60 | 3 of 3 | S26D/N33C/F98R |
| 4.28 | 1 of 3 | Y30F/G49M/N52K |
| 2.82 | 3 of 3 | Y30K/Q96W/F98D |
| 2.81 | 3 of 3 | G24S/F98A |
| 3.86 | 2 of 3 | Y30A/N33K/Q96L |
| 3.51 | 3 of 3 | K50A/P54E/V97H |
| 2.83 | 1 of 3 | Y29E/R53L/S93L |
| 3.06 | 3 of 3 | S92R/Q96R |
| 2.08 | 3 of 3 | Y31K/S89C/S93T |
| 2.31 | 2 of 3 | S26M/S55V/V97F |
| 5.53 | 1 of 3 | G49N/N51V/N52Y |
| not detected | 0 of 3 | G94M/V97Q |
| 2.50 | 3 of 3 | P54Q/Q96M |
| 4.38 | 1 of 3 | S26C/A32R/D91S |
| 4.52 | 1 of 3 | D25C/S92T/S93K |
| 4.28 | 1 of 3 | K50C/R53E |
| 2.83 | 3 of 3 | D25T/A32V/P54Q |
| 3.00 | 3 of 3 | Y29S/S93T/F98R |
| 4.89 | 1 of 3 | D25S/A32I/D91P |
| not detected | 0 of 3 | K50S/R53T/D91P |
| not detected | 0 of 3 | S26L/Y31M/S93C |
| 3.71 | 3 of 3 | D25K/L27I/S55R |
| not detected | 0 of 3 | G24R/Y31P/R53P |
| 4.45 | 3 of 3 | G24P/S55D/Q96C |
| not detected | 0 of 3 | G49V/F95Y |
| 2.07 | 3 of 3 | Y31P/G49N/S93W |
| 2.35 | 3 of 3 | S55Q/S88E/S92P |
| 4.50 | 2 of 3 | R28P/S92I/V97Q |
| 3.58 | 2 of 3 | K50T/N52P/S55H |
| 2.91 | 3 of 3 | L27M/Y29K/S88G |
| 1.48 | 3 of 3 | R28T/Y29G/P54A |
| 3.98 | 2 of 3 | N52P/S88L/F98Q |
| 3.19 | 3 of 3 | S26I/S92R |
| not detected | 0 of 3 | L27V/Y29S/S89Y |
| not detected | 0 of 3 | L27W/S55G/S89Q |
| 4.54 | 2 of 3 | E23D/N33P/S93G |
| 3.71 | 3 of 3 | E23I/L27H/R28M |
| 3.66 | 3 of 3 | N51H/S88F/G94D |

8 of these entries, quoted again:

changes,mean log10 Kd (nM),seen in
G49N/N51V/N52Y,5.53,1 of 3
E23H/P54S/S88G,2.86,3 of 3
S93I/V97E/F98K,3.20,1 of 3
E23H/R28K/P54M,1.52,3 of 3
S93E/F95L/F98E,not detected,0 of 3
Y29S/S93T/F98R,3.00,3 of 3
S89V/R90F/S92A,2.74,3 of 3
N51H/S88F/G94D,3.66,3 of 3